## OPERA 2.9 data: vapor pressure values

Data: OPERA 2.9 data sets, kmansouri/OPERA on GitHub.

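The OPERA project collected these measurements from public sources as training and test data for property models. One number stands for a compound and property, with no spread given. Method, purity and exact conditions of the single measurements are not given. The measured form (salt, isomer or mixture) is not always the one drawn. Unmarked limits or estimates from the upstream databases cannot be ruled out.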

Vapor pressures (log10 mmHg) refer to near room temperature, 15 to 30 °C; higher is more volatile. "–" marks a cell with nothing listed here.

compound	name	log VP (log10 mmHg)
CC1(C)c2ccccc2-c2ccc(N(c3ccccc3-c3ccccc3)c3cccc4c3-c3ccccc3C43c4ccccc4-c4ccccc43)cc21	–	-9.319
CC(C)(C)N(Sc1nc2ccccc2s1)Sc1nc2ccccc2s1	–	-5.401
CCCCCCCCCCCCOC(=O)C(CC)CCCC (configuration not stated)	C12-15 alkyl ethylhexanoate	-4.71
C=CC1CCCCC1	Vinylcyclohexane	1.215
N#CC(c1ccc(Cl)cc1)c1c(Cl)cc(-n2ncc(=O)[nH]c2=O)cc1Cl (configuration not stated)	Diclazuril	-6.233
CC(C)(C)c1ccc(OCC2CO2)cc1 (configuration not stated)	tert-Butyl phenyl glycidyl ether	-3.677
FC(F)(I)C(F)(F)C(F)(F)C(F)(F)C(F)(F)C(F)(F)I	1,6-Diiodoperfluorohexane	0.377
CC(=O)CC(=O)OCCOC(=O)CC(C)=O	Ethylene glycol diacetoacetate	-4.378
COc1cc(Br)c(C=O)cc1O	2-Bromo-5-hydroxy-4-methoxybenzaldehyde	-5.468
COc1ccc(C(=O)CSc2cccc(OC)c2)cc1	1-(4-Methoxyphenyl)-2-[(3-methoxyphenyl)sulfanyl]ethan-1-one	-6.378
Clc1cc(-c2ccccc2)cc(Cl)c1Cl	3,4,5-Trichlorobiphenyl	-4.105
CCC(=O)CC(C)(C)c1ccccc1	5-Methyl-5-phenylhexan-3-one	-1.828
Cc1c(C#N)sc(N)c1C#N	5-Amino-3-methyl-2,4-thiophenedicarbonitrile	-7.846
O=C1CCC=CCCC=CCCC1	4,8-Cyclododecadien-1-one	-1.912
COC(OC)OC	Trimethoxymethane	1.709
CC(C)(C)c1cc(CCC(=O)OCCSCCOC(=O)CCc2cc(C(C)(C)C)c(O)c(C(C)(C)C)c2)cc(C(C)(C)C)c1O	–	-11
Cc1ccc([Si](Cl)(Cl)Cl)cc1	Trichloro-p-tolylsilane	0.639
C=COC(=O)CC	Vinyl propionate	1.552
C=CC(C)(C#CC1(O)C(C)=C2OC(C)OC2CC1(C)C)OC(C)OCC (configuration not stated)	–	-5.824
COC1CC2CC1C1C=CCC21 (configuration not stated)	4,7-Methano-1H-indene, 3a,4,5,6,7,7a-hexahydro-5-methoxy-	-0.313
Cc1nn(C)c(F)c1C(=O)Nc1ccccc1C(C)CC(C)C (configuration not stated)	Penflufen	-8.511
Clc1ccccc1-c1c(Cl)cc(Cl)c(Cl)c1Cl	2,2',3,4,6-Pentachlorobiphenyl	-3.914
COC(=O)[C@H](O)[C@@H](O)C(=O)OC	–	-3.189
CC1CCC(C(C)(C)O)C(O)C1 (configuration not stated)	p-Menthane-3,8-diol	-2.866
C=C[Si](OC)(OC)OC	Vinyltrimethoxysilane	0.951
CCCCC[C@H]1CC[C@H](c2ccc(CCC)cc2)CC1	Benzene, 1-(trans-4-pentylcyclohexyl)-4-propyl-	-4.126
OCc1cncs1	5-Hydroxymethylthiazole	-1.846
CC1CCCCC1O (configuration not stated)	2-Methylcyclohexanol	0.078
CO[Si](C)(C)CCCN	(3-Aminopropyl)dimethylmethoxysilane	-0.365
CCOC(=O)c1cn(C2CC2)c2cc(F)c(F)cc2c1=O	–	-12.59
CCN(CC)c1ccc(C=C2OC(=NC3CCCCC3)N(C3CCCCC3)C2=O)c(OC)c1	–	-11.41
c1ccc2c(c1)CC1COCOC21 (configuration not stated)	4,4a,5,9b-Tetrahydroindeno(1,2-d)-1,3-dioxin	-2.725
Clc1cc(Oc2c(Cl)cc(Cl)c(Cl)c2Cl)c(Cl)c(Cl)c1Cl	–	-7.075
Cc1cc(C)nc(NS(=O)(=O)c2ccc(N)cc2)n1	Sulfamethazine	-10.44
O/N=C1\CCCC2=C1C1CCC2C1=C(Cl)Cl (stereo partly drawn)	–	-6.362
O=C(O)COCCOCC(=O)O	3,6-Dioxaoctandioic acid	-5.859
C=C(C)C(=O)OCCC	Propyl methacrylate	0.805

Again, the 6 entries with the lowest log VP:

compound	name	log VP (log10 mmHg)
CCOC(=O)c1cn(C2CC2)c2cc(F)c(F)cc2c1=O	–	-12.59
CCN(CC)c1ccc(C=C2OC(=NC3CCCCC3)N(C3CCCCC3)C2=O)c(OC)c1	–	-11.41
CC(C)(C)c1cc(CCC(=O)OCCSCCOC(=O)CCc2cc(C(C)(C)C)c(O)c(C(C)(C)C)c2)cc(C(C)(C)C)c1O	–	-11
Cc1cc(C)nc(NS(=O)(=O)c2ccc(N)cc2)n1	Sulfamethazine	-10.44
CC1(C)c2ccccc2-c2ccc(N(c3ccccc3-c3ccccc3)c3cccc4c3-c3ccccc3C43c4ccccc4-c4ccccc43)cc21	–	-9.319
Cc1nn(C)c(F)c1C(=O)Nc1ccccc1C(C)CC(C)C (configuration not stated)	Penflufen	-8.511